# pIC50: −log10 of the molar value.
# Amino acid sequences for entries named in this document (tags omitted). A change or cut given only in a name is not applied to a line headed by its entry.
# UniProt P23458: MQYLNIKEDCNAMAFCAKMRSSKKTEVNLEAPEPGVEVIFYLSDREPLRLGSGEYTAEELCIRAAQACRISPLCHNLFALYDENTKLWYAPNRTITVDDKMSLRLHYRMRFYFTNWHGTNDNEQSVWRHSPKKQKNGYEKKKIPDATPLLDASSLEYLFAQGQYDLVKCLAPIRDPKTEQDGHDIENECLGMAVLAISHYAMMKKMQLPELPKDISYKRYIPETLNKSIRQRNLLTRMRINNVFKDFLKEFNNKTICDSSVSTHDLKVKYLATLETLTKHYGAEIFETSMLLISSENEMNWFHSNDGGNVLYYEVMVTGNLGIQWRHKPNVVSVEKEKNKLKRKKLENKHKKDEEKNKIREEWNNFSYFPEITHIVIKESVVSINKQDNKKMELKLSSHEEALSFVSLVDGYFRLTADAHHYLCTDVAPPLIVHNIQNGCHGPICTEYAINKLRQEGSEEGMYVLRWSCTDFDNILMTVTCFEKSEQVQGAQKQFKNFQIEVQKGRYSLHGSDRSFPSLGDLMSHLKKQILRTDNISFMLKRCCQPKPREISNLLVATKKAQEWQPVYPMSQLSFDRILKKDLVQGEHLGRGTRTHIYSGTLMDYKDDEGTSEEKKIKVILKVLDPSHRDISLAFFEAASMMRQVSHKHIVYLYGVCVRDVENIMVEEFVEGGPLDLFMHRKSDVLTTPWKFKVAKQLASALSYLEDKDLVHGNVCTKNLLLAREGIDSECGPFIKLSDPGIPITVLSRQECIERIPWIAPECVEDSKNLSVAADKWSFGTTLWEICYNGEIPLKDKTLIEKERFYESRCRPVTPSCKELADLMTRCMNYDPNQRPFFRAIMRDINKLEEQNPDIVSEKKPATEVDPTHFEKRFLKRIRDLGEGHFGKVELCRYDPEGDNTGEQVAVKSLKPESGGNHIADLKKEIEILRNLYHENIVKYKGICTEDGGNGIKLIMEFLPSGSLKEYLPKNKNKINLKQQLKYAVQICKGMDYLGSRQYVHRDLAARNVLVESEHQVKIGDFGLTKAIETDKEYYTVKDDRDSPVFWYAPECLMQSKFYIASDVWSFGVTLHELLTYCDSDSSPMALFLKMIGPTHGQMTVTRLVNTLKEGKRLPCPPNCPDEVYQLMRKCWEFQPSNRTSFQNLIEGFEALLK
# UniProt P29597: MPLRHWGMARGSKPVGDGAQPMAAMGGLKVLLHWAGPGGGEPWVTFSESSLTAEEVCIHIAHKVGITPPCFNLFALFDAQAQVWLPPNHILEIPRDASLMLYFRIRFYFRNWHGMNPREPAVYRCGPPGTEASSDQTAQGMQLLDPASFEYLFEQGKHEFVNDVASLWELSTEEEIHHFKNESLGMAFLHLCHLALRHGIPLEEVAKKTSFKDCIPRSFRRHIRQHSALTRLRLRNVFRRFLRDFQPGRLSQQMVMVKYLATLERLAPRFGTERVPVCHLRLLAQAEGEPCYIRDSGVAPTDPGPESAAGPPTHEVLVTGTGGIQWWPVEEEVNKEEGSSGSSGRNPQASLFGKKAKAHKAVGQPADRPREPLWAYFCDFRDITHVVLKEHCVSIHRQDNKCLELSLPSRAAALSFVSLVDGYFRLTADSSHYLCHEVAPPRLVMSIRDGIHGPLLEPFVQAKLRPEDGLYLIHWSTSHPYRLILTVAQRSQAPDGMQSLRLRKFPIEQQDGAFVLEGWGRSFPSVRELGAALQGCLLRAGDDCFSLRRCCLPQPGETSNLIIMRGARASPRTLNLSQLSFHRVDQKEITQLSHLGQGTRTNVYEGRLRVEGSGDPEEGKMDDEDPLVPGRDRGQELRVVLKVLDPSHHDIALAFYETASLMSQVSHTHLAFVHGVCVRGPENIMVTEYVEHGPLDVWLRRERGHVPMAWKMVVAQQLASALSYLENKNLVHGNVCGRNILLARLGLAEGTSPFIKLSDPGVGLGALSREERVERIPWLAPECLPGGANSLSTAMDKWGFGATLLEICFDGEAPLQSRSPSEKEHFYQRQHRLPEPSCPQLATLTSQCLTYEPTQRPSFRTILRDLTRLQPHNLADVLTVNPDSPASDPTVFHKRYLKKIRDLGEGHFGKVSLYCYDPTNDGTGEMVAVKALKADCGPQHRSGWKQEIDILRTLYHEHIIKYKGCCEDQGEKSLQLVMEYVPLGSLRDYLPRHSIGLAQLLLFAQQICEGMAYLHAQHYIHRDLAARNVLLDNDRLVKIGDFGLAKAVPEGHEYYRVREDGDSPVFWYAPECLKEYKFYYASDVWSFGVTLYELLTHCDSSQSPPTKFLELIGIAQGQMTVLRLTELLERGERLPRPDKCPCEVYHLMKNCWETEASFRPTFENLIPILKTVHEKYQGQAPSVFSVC
# UniProt O60674: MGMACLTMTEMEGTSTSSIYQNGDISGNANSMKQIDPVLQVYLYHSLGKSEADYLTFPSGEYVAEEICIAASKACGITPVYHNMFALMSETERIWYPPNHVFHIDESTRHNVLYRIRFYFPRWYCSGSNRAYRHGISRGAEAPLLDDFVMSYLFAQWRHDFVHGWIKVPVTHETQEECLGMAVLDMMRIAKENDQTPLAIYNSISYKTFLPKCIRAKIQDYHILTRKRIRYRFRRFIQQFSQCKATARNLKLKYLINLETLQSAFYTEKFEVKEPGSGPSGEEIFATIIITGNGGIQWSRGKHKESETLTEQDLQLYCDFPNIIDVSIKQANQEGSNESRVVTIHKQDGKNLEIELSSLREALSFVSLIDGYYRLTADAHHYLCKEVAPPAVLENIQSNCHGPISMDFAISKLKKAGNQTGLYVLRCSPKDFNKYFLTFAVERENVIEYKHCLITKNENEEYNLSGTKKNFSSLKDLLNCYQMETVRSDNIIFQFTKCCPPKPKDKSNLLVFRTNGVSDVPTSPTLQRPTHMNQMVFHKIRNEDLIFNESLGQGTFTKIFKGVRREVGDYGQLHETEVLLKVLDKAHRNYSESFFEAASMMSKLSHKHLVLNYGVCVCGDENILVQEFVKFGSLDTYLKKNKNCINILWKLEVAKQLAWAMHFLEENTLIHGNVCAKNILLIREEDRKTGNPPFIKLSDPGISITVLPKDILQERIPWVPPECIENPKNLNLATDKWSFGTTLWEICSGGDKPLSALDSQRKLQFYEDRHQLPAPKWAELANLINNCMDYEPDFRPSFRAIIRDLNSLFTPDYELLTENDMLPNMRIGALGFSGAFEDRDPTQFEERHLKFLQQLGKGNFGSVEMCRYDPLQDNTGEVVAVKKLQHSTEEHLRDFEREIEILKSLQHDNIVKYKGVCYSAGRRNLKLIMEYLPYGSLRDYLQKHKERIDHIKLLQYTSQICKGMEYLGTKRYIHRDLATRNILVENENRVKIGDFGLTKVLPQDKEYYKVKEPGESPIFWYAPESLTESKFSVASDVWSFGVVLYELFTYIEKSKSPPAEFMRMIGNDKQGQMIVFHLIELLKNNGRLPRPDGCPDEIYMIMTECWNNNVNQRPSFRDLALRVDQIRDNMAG
# Target: Tyrosine-protein kinase JAK1 (Homo sapiens, UniProt P23458)
# Assay: not given
row,SMILES,pIC50
1,N#Cc1ccc(CN2CCCC(c3nnn4cnc5[nH]ccc5c34)C2)cc1 (configuration not stated),6.48
2,O[C@H]1CC[C@H](c2nnn3cnc4[nH]ccc4c23)CC1,10.08
3,c1cncc(CN2CCCC(c3nnn4cnc5[nH]ccc5c34)C2)c1 (racemic),7.35

# Target: Non-receptor tyrosine-protein kinase TYK2 (Homo sapiens, UniProt P29597)
# Assay: Enzyme Assay: JAK1, JAK2, JAK3 and Tyk2 were purchased from Carna Biosciences, Inc. As the substrate, LANCE Ultra ULight-JAK1 Peptide (manufactured by PerkinElmer Co., Ltd. (PE)) was used. Dilute solutions of compounds and enzymes in assay buffer (50 mM HEPES pH7.5, 1 mM EGTA, 1 mM MgCl2, 2 mM DTT, 0.01% Tween20) were dispensed into wells of a 384-well black plate. After 5 minutes of …
row,SMILES,pIC50
1,Fc1ccc(NC[C@H]2CC[C@H](c3nnn4cnc5[nH]ccc5c34)CC2)c(C(F)(F)F)c1,6.10
2,FC(F)(F)c1cc(CN2CCC(c3nnn4cnc5[nH]ccc5c34)CC2)ccc1Cl,6.85

# Target: Tyrosine-protein kinase JAK2 (Homo sapiens, UniProt O60674)
# Assay: as above
row,SMILES,pIC50
1,O=C(OCc1ccccc1)N1CCCC(c2ncn3cnc4[nH]ccc4c23)C1 (racemic),6.82
2,N#Cc1ccc(CN2CCCC(c3nnn4cnc5[nH]ccc5c34)C2)cc1 (configuration not stated),6.55
3,O=C(Nc1nncs1)N1CCCC(c2nnn3cnc4[nH]ccc4c23)C1 (racemic),5.80
4,FC(F)(F)c1cc(CN2CCC(c3nnn4cnc5[nH]ccc5c34)CC2)cc(C(F)(F)F)c1,6.64
5,Cc1cc(OC(F)(F)F)ccc1NC1CCC(c2nnn3cnc4[nH]ccc4c23)CC1 (configuration not stated),6.57

# Target: T1, Tyrosine-protein kinase JAK3 (Homo sapiens, UniProt P52333)
# T1 sequence (P52333 whole entry): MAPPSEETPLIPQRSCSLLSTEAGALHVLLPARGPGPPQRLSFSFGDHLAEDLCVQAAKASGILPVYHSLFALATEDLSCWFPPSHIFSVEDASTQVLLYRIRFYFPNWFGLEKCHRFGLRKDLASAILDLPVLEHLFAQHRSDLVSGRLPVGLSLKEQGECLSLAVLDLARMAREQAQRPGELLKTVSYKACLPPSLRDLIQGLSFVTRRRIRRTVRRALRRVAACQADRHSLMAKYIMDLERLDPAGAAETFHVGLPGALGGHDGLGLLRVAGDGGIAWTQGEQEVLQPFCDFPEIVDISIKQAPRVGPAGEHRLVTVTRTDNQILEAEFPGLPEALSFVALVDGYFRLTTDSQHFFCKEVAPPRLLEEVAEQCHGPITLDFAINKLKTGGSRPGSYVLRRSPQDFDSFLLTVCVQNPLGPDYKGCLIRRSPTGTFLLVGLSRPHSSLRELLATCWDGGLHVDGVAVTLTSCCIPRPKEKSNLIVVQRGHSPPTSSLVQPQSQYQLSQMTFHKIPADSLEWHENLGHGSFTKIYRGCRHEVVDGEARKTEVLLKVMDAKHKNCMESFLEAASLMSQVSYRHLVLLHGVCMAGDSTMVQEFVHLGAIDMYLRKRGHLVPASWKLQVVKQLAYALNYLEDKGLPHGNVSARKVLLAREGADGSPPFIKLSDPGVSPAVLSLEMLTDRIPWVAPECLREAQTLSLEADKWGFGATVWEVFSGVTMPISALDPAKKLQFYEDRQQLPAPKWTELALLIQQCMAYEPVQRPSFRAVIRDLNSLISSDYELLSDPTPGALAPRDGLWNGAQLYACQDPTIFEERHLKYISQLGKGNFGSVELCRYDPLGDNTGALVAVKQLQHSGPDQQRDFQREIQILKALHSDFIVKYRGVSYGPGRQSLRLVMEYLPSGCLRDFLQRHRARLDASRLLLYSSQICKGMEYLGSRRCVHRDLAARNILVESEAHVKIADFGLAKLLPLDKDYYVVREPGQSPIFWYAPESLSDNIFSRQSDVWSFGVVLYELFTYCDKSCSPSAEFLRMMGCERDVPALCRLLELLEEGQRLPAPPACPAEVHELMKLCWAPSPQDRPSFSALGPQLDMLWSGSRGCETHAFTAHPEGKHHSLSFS
# Assay: not given
row,pIC50,SMILES
1,6.29,O=C(Nc1nncs1)N1CCCC(c2nnn3cnc4[nH]ccc4c23)C1 (racemic)
2,7.19,N#CCC(=O)N1CCCC(c2ncn3cnc4[nH]ccc4c23)C1 (racemic)

# From ChEMBL document CHEMBL5725597, “Substituted pyrrolo[3′,2′:5,6]pyrido[4,3-d]pyrimidines and JAK inhibitors comprising the same” (2017)
